Values of other authors in patent publication US20080032965A1, “Method for enhancing cognitive function” (priority 2006, published 2008).
Read-outs that look alike come from different tables or passages of the source.

Chains of the proteins cited; added tags and fusions are not shown.
UniProt P08908, whole entry: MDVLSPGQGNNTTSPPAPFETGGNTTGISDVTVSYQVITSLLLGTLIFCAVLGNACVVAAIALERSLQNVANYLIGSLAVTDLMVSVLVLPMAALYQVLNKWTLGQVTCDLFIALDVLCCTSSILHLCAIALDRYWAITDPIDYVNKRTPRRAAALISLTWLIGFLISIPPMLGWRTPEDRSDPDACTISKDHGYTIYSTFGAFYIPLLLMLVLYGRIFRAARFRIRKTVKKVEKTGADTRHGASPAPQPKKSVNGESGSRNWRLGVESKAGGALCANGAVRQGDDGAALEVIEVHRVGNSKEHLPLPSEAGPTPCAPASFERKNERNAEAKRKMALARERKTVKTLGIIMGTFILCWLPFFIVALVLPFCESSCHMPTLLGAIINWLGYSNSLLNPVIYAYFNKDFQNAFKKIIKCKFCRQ
UniProt P28223, whole entry: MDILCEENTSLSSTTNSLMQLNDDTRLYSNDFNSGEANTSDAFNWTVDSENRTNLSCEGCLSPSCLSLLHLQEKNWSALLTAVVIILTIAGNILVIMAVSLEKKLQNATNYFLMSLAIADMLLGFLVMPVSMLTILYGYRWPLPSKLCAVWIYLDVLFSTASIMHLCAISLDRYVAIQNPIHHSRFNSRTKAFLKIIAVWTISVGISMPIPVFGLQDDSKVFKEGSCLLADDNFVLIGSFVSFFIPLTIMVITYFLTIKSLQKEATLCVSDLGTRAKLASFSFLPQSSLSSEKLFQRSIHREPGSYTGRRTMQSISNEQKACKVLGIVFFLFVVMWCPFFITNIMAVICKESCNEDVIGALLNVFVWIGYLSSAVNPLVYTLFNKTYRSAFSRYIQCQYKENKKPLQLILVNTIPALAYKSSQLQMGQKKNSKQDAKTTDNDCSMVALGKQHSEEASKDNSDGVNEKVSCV

Assays:
[1] = biological target: 5-HT1A (Homo sapiens, UniProt P08908); conditions: read-out: Ki (nM) 5-HT1A, cited from earlier work
[2] = biological target: 5-HT2A (Homo sapiens, UniProt P28223); conditions: read-out: Ki (nM) 5-HT2A; Table 1; cited from earlier work

| Compound | Ki ([1]; Table 1) [nM] | Ki [2] [nM] | Ki ([1]; Table 4) [nM] |
| --- | --- | --- | --- |
| COc1ccccc1N1CCN(CCCCn2c(=O)c3ccccc3c(=O)n2-c2ccccc2)CC1 | 43 | 375 |  |
| COc1ccccc1N1CCN(CCCn2c(=O)c3ccccc3c(=O)n2-c2ccccc2)CC1 | 30 | 300 |  |
| O=c1c2ccccc2ncn1CCCCN1CCN(c2cccc(Cl)c2)CC1 | 50 | 68 |  |
| COc1ccccc1N1CCN(CCCCn2cnc3ccccc3c2=O)CC1 | 36 | 566 |  |
| O=c1c2ccccc2ncn1CCCN1CCN(c2cccc(Cl)c2)CC1 | 253 | 16 |  |
| Nn1c(SCCCN2CCN(c3ccccc3[N+](=O)[O-])CC2)nc2sccc2c1=O |  |  | 3 |
